Measurements taken from PubChem BioAssay AID720532 (National Center for Advancing Translational Sciences (NCATS), 2013).
Screen size: about 18,000 compounds; about 1,200 (6.7%) were called active. These results got no clear call from the source, so the numbers are uncertain. The call rests on the fitted dose curve; tested in HEK293 cells.

Test: qHTS for Inhibitors of binding or entry into cells for Marburg Virus
Conditions: Marburg virus pseudotype entry/binding inhibition, cell-based
Potency means the concentration at half of the fitted maximal effect.

Which Potency does the source give for `Cc1cc([N+](=O)[O-])cc([N+](=O)[O-])c1O` here?
The Potency was inconclusive: 39.8 µM.

Which Potency does the source give for `CN(CCCl)Cc1cc(Cl)c(NC2=NCCN2)c(Cl)c1` here?
Its Potency is inconclusive: 17.8 µM.

With `CN(C(=O)Cc1ccc(Cl)c(Cl)c1)[C@H]1CC[C@@]2(CCCO2)C[C@@H]1N1CCCC1` as the molecule, how does the Potency read?
Its Potency is inconclusive: 12.6 µM.
